# According to US12558356B2, “Immunophilin binding agents and uses thereof” (The Regents of the University of California, priority 2019, dated 2026):
# The chains behind the UniProt entries cited, without tags or fusion partners.
# UniProt P62942, whole entry: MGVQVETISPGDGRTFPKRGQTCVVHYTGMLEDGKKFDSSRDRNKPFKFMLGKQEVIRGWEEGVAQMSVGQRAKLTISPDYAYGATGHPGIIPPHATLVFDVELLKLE
# Assays:
# [1] = tested on: mTOR; assay: Rescue of mTOR inhibition in cells
# [2] = tested on: mTOR signaling in MCF7 cells; assay: Rescue of mTOR inhibition in MCF7 cells, 4 h, Western blot
# [3] = biological target: FKBP12 (Homo sapiens (Human), UniProt P62942); settings: read-out: Kd (binding to FKBP12); fluorescence polarization assay
smiles,measurement,setting,value
CO[C@H]1C[C@@H](C)C/C(C)=C\[C@@H](CCCc2cccc[n+]2[O-])C(=O)C[C@H](O)[C@@H](C)[C@@H](/C(C)=C/[C@@H]2CC[C@@H](O)[C@H](OC)C2)OC(=O)[C@@H]2CCCCN2C(=O)C(=O)[C@]2(O)O[C@H]1[C@@H](OC)C[C@H]2C,rescue of mTOR inhibition,"[1]; inhibition by RapaLink-1, in cells",rescues mTOR inhibition
same,rescue of mTOR inhibition,"[1]; inhibition by Rapamycin, in cells",rescues mTOR inhibition
same,Rescue of mTOR inhibition by Rapamycin or RapaLink-1,[2],rescues mTOR inhibition
same,Kd,[3],3.7 nM
